# Data from ChEMBL document CHEMBL3774335, “Tactical Approaches to Interconverting GPCR Agonists and Antagonists” (J Med Chem, 2016).
# Protein sequences, listed by entry. Tags and fused reporters are not part of them.
# UniProt P41146, whole entry: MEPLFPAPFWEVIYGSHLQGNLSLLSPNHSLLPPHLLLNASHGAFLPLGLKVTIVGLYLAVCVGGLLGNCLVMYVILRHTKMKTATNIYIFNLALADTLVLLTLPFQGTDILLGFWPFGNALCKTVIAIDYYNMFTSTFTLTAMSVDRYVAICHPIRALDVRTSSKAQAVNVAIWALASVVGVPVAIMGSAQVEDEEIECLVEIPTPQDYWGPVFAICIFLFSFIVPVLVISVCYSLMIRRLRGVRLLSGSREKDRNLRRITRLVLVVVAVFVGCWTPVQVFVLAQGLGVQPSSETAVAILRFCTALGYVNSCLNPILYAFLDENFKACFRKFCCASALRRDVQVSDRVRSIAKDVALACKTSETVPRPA
# Target: Nociceptin receptor (Homo sapiens) (UniProt P41146)
# Experiment: Partial agonist activity at human nociceptin receptor expressed in CHO cells after 60 mins by [35S]GTPgammaS binding assay
smiles,measurement,value
O=C1Cc2ccccc2N1C1CCN(Cc2ccccc2)CC1,%max,18%
